# Earlier results in paper PMC5655689, “Therapeutic potential of the phosphino Cu(I) complex (HydroCuP) in the treatment of solid tumors” (Scientific Reports, 2017).
# Tested on: OXP-resistant Lovo cells
# Conditions: cells obtained after 22 months of selection; cited from earlier work
compound,measurement,value
"O=C1[O][Pt]2([NH][C@@H]3CCCC[C@H]3[NH]2)[O]C1=O [OXP, oxaliplatin]",Fold resistance of OXP-resistant LoVo cells,about 17
